# Assay results reported in PubChem BioAssay AID720582 (The Scripps Research Institute Molecular Screening Center, 2013).
# Sequences of proteins named here, by UniProt entry; tags and fusion partners are left off. Residues count along the entry.
# UniProt O14672, 214-748 limits assumed: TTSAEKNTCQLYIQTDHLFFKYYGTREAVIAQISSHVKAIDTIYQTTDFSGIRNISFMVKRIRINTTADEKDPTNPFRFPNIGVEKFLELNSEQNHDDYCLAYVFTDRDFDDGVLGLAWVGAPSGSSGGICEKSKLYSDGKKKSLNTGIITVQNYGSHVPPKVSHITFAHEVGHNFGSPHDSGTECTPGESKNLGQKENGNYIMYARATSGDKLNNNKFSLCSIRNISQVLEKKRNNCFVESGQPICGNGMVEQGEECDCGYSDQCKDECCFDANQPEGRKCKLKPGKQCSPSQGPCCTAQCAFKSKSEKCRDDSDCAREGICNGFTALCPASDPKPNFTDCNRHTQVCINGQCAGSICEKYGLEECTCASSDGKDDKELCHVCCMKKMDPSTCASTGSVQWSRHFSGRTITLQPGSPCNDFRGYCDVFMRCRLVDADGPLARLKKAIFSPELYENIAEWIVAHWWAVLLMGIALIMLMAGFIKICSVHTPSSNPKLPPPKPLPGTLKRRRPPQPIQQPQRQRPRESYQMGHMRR
# The entries are a selection whose mix differs from that of the whole data set. Calls of active or inactive are those of the source.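 Rule for the calls: active = inhibition above a per-campaign cutoff equal to the mean of compounds falling between control-based bounds plus 3 SD (cut at about 20% in these data); inactive = the rest.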
# Biological target: Disintegrin and metalloproteinase domain-containing protein 10 (Homo sapiens) (UniProt O14672)
# Assay: human ADAM10 inhibitors, primary screen, biochemical, QFRET, HTS (AID 720582);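 note: 0% = DMSO wells while the 100% control is not disclosed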
# Settings: recombinant ADAM10, EDANS/DABCYL FRET peptide cleavage, 3 h; at 7 µM; hits give high values
row,SMILES,inhibition
1,COc1ccc(NC2CCN(CCc3ccccc3)CC2)c(OC)c1,inactive: 3.54%
2,Cc1ccccc1NC1(C#N)CCN(Cc2ccccc2)CC1,inactive: -1.16%
3,COc1ccc(C(c2nnnn2C2CCCCC2)N2CCC(n3c(=O)[nH]c4ccccc43)CC2)cc1 (stereo not given),inactive: 2.94%
4,CCN1CCC(Nc2cccc(F)c2)CC1,inactive: 4.16%
5,CC(C)(C)n1nnnc1C(c1ccnc2ccccc12)N1CCC(n2c(=O)[nH]c3ccccc32)CC1 (stereo not given),inactive: -2.31%
6,O=C(NCC1(N2CCCCC2)CCCCC1)c1ccco1,inactive: -5.86%
7,CN(C)c1ccc(C(=O)NCC2(N3CCCCC3)CCCCC2)cc1,inactive: -5%
8,Cn1c(=O)[nH]cc(N(CCCl)CCCl)c1=O,inactive: -2.71%
9,COc1cccc(C(c2nnnn2C2CCCCC2)N2CCC(n3c(=O)[nH]c4ccccc43)CC2)c1OC (stereo not given),inactive: 19.3%
10,CC(=O)N(c1ccccc1)C1CCNCC1,inactive: -8.3%
11,CCC(c1nnnn1C1CCCCC1)N1CCC(n2c(=O)[nH]c3ccccc32)CC1 (stereo not given),inactive: 5.18%
12,COc1cc(OC)cc(C(=O)NCC2(N3CCCCC3)CCCCC2)c1,inactive: -9.22%
13,O=c1[nH]c2ccccc2n1C1CCN(C(c2ccnc3ccccc23)c2nnnn2C2CCCCC2)CC1 (stereo not given),inactive: 5.85%
14,Cc1ccc(C(=O)NCC2(N3CCCCC3)CCCCC2)o1,inactive: -4.13%
15,Fc1ccccc1NC1CCN(Cc2ccccc2)CC1,inactive: 8%
16,Cc1ccc(NC2(C#N)CCN(Cc3ccccc3)CC2)cc1,inactive: 0.65%
17,COc1cccc(C(=O)N(c2cc(C)cc(C)c2)C2CCN(C(=O)OC(C)(C)C)CC2)c1,inactive: 3.69%
18,COc1cc(OC)cc(C(=O)NCC2(N3CCOCC3)CCCCC2)c1,inactive: -2.34%
19,COc1cccc(C(c2nnnn2C2CCCC2)N2CCC(n3c(=O)[nH]c4ccccc43)CC2)c1OC (stereo not given),inactive: 6.72%
20,CCC(CO)(C(=O)OC1CN2CCC1CC2)c1ccccc1 (stereo not given),inactive: 3.13%
21,CN1CCC(Nc2ccc(Cl)cc2)CC1,inactive: -1.79%
22,CCOc1ncccc1C(=O)NCC1(N2CCOCC2)CCCCC1,inactive: -0.19%
23,CN1CCC(Nc2ccc(F)c(Cl)c2)CC1,inactive: -6.25%
24,CC(C)(C)OC(=O)N1CCC(Nc2ccccc2)CC1,inactive: -6.46%
25,NN(c1ccccc1)C1CCN(CCc2ccccc2)CC1,inactive: -2.67%

row,SMILES,inhibition
1,O=C(O)C1(Nc2ccccc2)CCN(Cc2ccccc2)CC1,inactive: -7.71%
2,O=c1[nH]c2ccccc2n1C1CCN(C(c2cc3ccccc3o2)c2nnnn2C2CCCC2)CC1 (stereo not given),inactive: 7.36%
3,CCCOc1ccc(C(=O)NCC2(N(C)C)CCCCC2)cc1,inactive: 2.39%
4,CCOC(=O)N1CCC(Nc2ccc(C)cc2)CC1,inactive: 0.37%
5,COc1cccc(C(c2nnnn2C(C)(C)C)N2CCC(n3c(=O)[nH]c4ccccc43)CC2)c1OC (stereo not given),inactive: 5.07%
6,N/C(=N\O)c1c(N)no[n+]1[O-],inactive: 1.3%
7,O=C(OC1CN2CCC1CC2)C1c2ccccc2C=Cc2ccccc21 (stereo not given),inactive: -4.08%
8,O=c1[nH]c2ccccc2n1C1CCN(C(c2cccs2)c2nnnn2C2CCCC2)CC1 (stereo not given),inactive: 11.8%
9,CCCCn1nnnc1C(c1cccc(OC)c1OC)N1CCC(n2c(=O)[nH]c3ccccc32)CC1 (stereo not given),inactive: 10%
10,CCCCn1nnnc1C(c1ccccc1)N1CCC(n2c(=O)[nH]c3ccccc32)CC1 (stereo not given),inactive: 5.84%
11,COc1cc(C(=O)NCC2(N3CCOCC3)CCCCC2)cc(OC)c1C,inactive: -24.1%
12,O=C(NCC1(N2CCOCC2)CCCCC1)c1cc(Br)ccc1Cl,inactive: -15.6%
13,O=c1[nH]c2ccccc2n1C1CCN(C(c2cccs2)c2nnnn2C2CCCCC2)CC1 (stereo not given),inactive: -5.2%
14,NC(=O)C1(Nc2ccccc2)CCN(Cc2ccccc2)CC1,inactive: 0.45%
15,COc1ccc(C(=O)NCC2(N3CCOCC3)CCCCC2)cc1OC,inactive: -2.55%
16,O=c1[nH]c2ccccc2n1C1CCN(C(c2ccnc3ccccc23)c2nnnn2C2CCCC2)CC1 (stereo not given),inactive: 12.6%
17,CN(C)C1(CNC(=O)c2cccc(C#N)c2)CCCCC1,inactive: -5.27%
18,C/C(N)=N\P(=O)(Oc1ccccc1)Oc1ccccc1,inactive: 8.66%
19,c1ccc(CN2CCC(Nc3ccccc3)CC2)cc1,inactive: 0.29%
20,O=c1[nH]c2ccccc2n1C1CCN(C(c2ccccc2)c2nnnn2C2CCCC2)CC1 (stereo not given),inactive: -12.7%
21,CCCN1CCC(Nc2cc(OC)cc(OC)c2)CC1,inactive: -4.08%
22,Cc1cc(N(CCCl)CCCl)ccc1C=O,inactive: -12.7%
23,CC(C)(C)n1nnnc1C(c1cccc2ccccc12)N1CCC(n2c(=O)[nH]c3ccccc32)CC1 (stereo not given),inactive: 14.7%
24,N#Cc1ccc(C(=O)NCC2(N3CCCCC3)CCCCC2)cc1,inactive: -1.23%
25,CC(C)(C)OC(=O)N1CCC(N(C(=O)c2ccccc2)c2ccc(Cl)cc2)CC1,inactive: 3.46%
